Data on eight compounds can be found in US20060014785A1, “BICYCLIC, SUBSTITUTED TRIAZOLES AS MODULATORS OF PPAR AND METHODS OF THEIR PREPARATION” (Metabolex, Inc., priority 2004, published 2006).

Sequences of proteins named here, by UniProt entry; tags and fusion partners are left off. A change or cut given only in a name is not applied to a line headed by its entry. Residues count along the entry.
UniProt P35396, 210-438 limits assumed: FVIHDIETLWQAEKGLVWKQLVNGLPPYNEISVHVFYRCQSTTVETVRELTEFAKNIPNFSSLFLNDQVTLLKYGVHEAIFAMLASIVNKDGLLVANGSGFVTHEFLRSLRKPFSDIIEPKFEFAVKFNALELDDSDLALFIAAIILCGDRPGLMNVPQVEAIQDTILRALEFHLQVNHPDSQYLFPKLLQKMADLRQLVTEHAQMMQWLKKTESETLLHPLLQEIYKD
UniProt P37238, 238-503 limits assumed: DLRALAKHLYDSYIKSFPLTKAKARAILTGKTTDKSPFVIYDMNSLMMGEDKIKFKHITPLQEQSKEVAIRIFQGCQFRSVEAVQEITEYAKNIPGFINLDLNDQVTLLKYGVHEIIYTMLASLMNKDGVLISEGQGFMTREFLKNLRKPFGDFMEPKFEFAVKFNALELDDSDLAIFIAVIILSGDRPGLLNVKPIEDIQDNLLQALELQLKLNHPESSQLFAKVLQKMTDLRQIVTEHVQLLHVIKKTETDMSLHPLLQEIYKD
UniProt P23204, 239-466 limits assumed: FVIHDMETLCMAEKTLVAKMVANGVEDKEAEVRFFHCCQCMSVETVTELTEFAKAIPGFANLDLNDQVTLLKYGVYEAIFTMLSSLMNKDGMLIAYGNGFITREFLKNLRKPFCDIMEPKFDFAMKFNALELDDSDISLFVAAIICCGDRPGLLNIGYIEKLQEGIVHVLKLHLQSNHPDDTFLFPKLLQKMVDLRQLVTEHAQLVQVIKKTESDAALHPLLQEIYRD

In experiment [1] the target is mouse PPARδ (Mus musculus, UniProt P35396). The experiment can be described thus: PPAR delta transactivation (GAL4 chimeric receptor luciferase reporter) assay. The note with it: read-out: Gene Activation Assay: EC50 (<10 μM) PPAR delta; GAL4-mPPAR δ chimeric receptor, pFR-Luc reporter, HEK293T cells, 20 hours incubation. From the text: (§1) Measurement of PPARγ, δ, and α Transactivation Activity.
(§2) Chimeric receptors were constructed in which the yeast transcription factor GAL4 DNA binding domain was fused to the ligand binding domain of either mouse PPARγ, mouse PPARδ or mouse PPAR α in order to assess the ability of the compounds of the present invention to activate gene expression in a PPAR-dependent manner. The chimeric receptor expression plasmids (GAL4-mPPARγ, GAL4-mPPAR δ and GAL4-PPAR α) and the reporter plasmid containing 5×GAL4 binding site (pFR-Luc, obtained from Stratagene) were transfected into HEK293T cells using the Lipofectamine 2000 reagent (Invitrogen), according to the manufacturers instructions. Six hours after transfection, the culture medium was renewed and the cells were incubated for 20 hours in presence of either 1) DMSO (vehicle), 2) a compound of the invention or 3) a reference compound for comparison. Rosiglitazone (obtained from WDF Pharma) was used as a reference compound for the PPARγassay; GW501516 (prepared as described in Sznaidman et al. Bioorg. Med. Chem. Lett. (2003) 13:1517-1521) was used as a reference compound for the PPAR δ assay and GW7647 (obtained from Sigma) was used as a reference compound for the PPAR α assay. Luciferase activity was measured as a reporter of gene expression. Luciferase activity on the cell lysates using the Steady-Glo reagent was measured according to the manufacturers instructions.

In experiment [2] the target is mouse PPARγ (Mus musculus, UniProt P37238). The experiment can be described thus: PPAR gamma transactivation (GAL4 chimeric receptor luciferase reporter) assay. The following applies: read-out: Gene Activation Assay: EC50 (<10 μM) PPAR gamma; GAL4-mPPARγ chimeric receptor, pFR-Luc reporter, HEK293T cells, 20 hours incubation.
From the text: as §1, §2

Experiment [3] concerns the target mouse PPAR α (Mus musculus, UniProt P23204). The experiment can be described thus: PPAR alpha transactivation (GAL4 chimeric receptor luciferase reporter) assay. The following applies: read-out: Gene Activation Assay: EC50 (<10 μM) PPAR alpha, pFR-Luc reporter, HEK293T cells, 20 hours incubation.
From the text: as §1, §2
In general terms: A reporter such as luciferase makes a cellular process visible.

In the case of `COc1ccc(-n2nc(C)c(COc3ccc4c(ccn4CC(=O)O)c3)n2)cc1`, the results for the EC50 in experiment [1], in experiment [2] and in experiment [3] were less than 10 µM, more than 30 µM and more than 10 µM, respectively.

As to `Cc1nn(-c2cccc(C(F)(F)F)c2)nc1COc1ccc2c(ccn2CC(=O)O)c1`, the EC50 in experiment [1] is less than 10 µM; in experiment [2], more than 30 µM; in experiment [3], more than 10 µM.

Turning to `Cc1nn(-c2cc(C(F)(F)F)cc(C(F)(F)F)c2)nc1COc1ccc2c(CC(=O)O)coc2c1`, the results for the EC50 in experiment [1], in experiment [2] and in experiment [3] were less than 10 µM, more than 30 µM and less than 10 µM, respectively.

For the compound `Cc1nn(-c2ccc(Cl)c(Cl)c2)nc1COc1ccc2c(CC(=O)O)coc2c1`, the EC50 in experiment [1] was less than 10 µM; in experiment [2], more than 30 µM; in experiment [3] it was more than 10 µM.

For `CC(C)c1nn(-c2ccc(C(F)(F)F)cc2)nc1COc1ccc2c(ccn2CC(=O)O)c1`, the EC50 in experiment [1] is less than 10 µM; in experiment [2], more than 10 µM; in experiment [3], more than 10 µM.

For the compound `O=C(O)Cn1ccc2cc(OCc3nn(-c4ccc(C(F)(F)F)cc4)nc3C(F)(F)F)ccc21`, the results for the EC50 in experiment [1], in experiment [2] and in experiment [3] were less than 10 µM, more than 30 µM and more than 10 µM, respectively.

Take `O=C(O)Cc1coc2cc(OCc3nn(-c4ccc(C(F)(F)F)cc4)nc3-c3ccccc3)ccc12`: the results for the EC50 in experiment [1], in experiment [2] and in experiment [3] were less than 10 µM, more than 30 µM and more than 10 µM, respectively.

With `CC(C)c1nn(-c2ccc(C(F)(F)F)cc2)nc1Cn1ccc2cc(OCC(=O)O)ccc21`, the EC50 in experiment [1] was less than 10 µM; in experiment [2], more than 30 µM; in experiment [3], more than 10 µM.
